# Laboratory results taken from PubChem BioAssay (EPA / NIEHS).
# The chains behind the UniProt entries cited, without tags or fusion partners.
# UniProt P08219, whole entry: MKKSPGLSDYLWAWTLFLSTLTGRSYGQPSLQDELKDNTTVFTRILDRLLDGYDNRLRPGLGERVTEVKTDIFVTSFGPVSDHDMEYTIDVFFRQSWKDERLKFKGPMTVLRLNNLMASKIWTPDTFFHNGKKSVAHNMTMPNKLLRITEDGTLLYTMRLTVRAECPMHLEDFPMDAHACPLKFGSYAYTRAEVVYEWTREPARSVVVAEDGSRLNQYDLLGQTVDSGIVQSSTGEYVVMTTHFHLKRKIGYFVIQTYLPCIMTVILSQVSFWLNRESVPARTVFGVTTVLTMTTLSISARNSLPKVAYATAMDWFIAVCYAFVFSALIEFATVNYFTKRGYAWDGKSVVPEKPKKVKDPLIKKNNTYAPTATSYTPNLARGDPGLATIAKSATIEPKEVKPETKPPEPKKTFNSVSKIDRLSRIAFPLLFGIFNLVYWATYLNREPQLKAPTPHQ
# UniProt P16257, whole entry: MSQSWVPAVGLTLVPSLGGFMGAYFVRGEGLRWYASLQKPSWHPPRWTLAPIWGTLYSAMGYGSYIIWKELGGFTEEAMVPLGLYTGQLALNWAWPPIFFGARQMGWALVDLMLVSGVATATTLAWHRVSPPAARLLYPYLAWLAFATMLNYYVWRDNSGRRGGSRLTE
# UniProt P22909, whole entry: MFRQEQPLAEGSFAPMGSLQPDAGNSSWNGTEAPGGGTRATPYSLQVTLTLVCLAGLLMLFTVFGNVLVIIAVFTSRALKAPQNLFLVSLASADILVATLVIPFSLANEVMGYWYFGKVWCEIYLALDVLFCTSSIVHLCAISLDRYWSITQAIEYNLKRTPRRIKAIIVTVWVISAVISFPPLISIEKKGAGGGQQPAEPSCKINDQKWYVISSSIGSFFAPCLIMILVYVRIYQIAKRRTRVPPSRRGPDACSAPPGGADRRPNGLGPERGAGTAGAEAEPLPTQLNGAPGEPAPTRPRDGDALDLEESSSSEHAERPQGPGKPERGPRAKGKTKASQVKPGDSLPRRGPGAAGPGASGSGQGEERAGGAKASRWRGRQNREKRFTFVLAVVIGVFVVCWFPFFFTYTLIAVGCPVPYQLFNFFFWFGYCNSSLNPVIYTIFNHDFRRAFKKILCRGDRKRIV
# UniProt P13945, whole entry: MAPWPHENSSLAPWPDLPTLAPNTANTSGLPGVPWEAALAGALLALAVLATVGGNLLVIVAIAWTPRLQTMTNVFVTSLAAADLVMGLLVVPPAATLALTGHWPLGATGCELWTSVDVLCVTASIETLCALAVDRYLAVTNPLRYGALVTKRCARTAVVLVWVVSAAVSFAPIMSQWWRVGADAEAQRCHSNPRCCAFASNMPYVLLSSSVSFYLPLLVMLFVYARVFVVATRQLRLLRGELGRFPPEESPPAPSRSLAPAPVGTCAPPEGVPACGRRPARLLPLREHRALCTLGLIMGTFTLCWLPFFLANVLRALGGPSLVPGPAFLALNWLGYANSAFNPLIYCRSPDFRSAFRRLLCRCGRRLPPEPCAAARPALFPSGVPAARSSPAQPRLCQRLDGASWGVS
# UniProt P21731, whole entry: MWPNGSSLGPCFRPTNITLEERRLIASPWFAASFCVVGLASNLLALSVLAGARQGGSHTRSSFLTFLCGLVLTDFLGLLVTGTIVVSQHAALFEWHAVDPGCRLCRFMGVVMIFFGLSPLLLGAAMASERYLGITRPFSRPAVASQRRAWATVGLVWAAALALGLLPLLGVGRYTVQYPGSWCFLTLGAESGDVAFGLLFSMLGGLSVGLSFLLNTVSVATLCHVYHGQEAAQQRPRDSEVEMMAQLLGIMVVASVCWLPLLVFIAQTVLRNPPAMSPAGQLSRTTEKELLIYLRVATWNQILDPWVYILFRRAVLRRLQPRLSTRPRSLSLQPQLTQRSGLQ
# UniProt P35353, whole entry: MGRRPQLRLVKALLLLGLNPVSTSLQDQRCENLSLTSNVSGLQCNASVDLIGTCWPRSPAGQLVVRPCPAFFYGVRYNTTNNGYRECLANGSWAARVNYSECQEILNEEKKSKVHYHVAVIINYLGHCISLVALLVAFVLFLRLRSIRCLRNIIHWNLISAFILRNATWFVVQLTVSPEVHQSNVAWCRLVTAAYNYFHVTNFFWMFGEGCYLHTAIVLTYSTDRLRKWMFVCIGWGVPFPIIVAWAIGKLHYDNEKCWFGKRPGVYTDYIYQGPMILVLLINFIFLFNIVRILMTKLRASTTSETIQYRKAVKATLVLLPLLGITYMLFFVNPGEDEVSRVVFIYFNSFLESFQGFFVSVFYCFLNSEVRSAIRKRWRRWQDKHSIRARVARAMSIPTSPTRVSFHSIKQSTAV
# UniProt P70536, whole entry: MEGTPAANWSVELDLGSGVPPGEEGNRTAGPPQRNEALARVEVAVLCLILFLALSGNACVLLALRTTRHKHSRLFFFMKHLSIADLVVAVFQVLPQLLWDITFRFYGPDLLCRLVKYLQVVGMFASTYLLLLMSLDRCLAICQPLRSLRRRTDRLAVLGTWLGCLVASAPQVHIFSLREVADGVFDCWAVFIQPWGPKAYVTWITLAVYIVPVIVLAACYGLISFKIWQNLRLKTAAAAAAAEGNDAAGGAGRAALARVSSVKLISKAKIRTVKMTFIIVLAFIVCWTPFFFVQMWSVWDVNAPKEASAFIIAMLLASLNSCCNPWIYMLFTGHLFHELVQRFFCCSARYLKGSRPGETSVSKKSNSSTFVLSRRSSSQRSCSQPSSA
# UniProt Q05941, whole entry: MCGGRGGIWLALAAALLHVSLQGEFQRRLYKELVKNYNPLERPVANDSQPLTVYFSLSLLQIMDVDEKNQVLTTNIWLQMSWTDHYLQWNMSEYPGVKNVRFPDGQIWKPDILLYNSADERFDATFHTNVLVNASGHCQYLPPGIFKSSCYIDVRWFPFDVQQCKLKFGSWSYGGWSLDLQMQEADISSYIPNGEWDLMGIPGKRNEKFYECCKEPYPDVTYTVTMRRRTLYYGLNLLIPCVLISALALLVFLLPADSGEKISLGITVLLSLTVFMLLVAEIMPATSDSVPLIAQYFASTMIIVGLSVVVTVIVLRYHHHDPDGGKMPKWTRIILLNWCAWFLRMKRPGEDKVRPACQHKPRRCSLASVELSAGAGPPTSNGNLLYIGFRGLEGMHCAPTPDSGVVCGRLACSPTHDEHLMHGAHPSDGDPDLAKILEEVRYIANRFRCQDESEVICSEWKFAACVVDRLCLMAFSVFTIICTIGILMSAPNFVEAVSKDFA
# This is a selection; strong and weak results do not stand in their true shares. Records with an inconclusive call do not appear. Active and inactive are the calls of the source. The calls were made as follows: active = hit-call score of the fitted dose curve at least 0.9, where 1 is the maximum; inconclusive = response in the unintended direction; inactive = score below 0.9.
# Legend:
# [1] = target: bovine Gamma-Aminobutyric Acid Type A Receptor BDZ, alpha 1 site (GABARa1), GABRA1 (gene 780973) (UniProt P08219); assay: NVS_LGIC_bGABARa1: NovaScreen (NVS) Ligand-Gated Ion Channel Assay for bovine Gamma-Aminobutyric Acid Type A Receptor BDZ, alpha 1 site (GABARa1) (AID 2283321)
# Procedure, shortened: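 Radioligand competition binding on bovine cortical membranes, 0.75 h, filter-based scintillation counting. Primary single concentration 25 uM in duplicate; actives rerun in concentration-response to 50 uM max. Loss of signal fitted versus DMSO.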
# [2] = target: rat Peripheral-type Benzodiazepine Receptor (PBR), Tspo (gene 24230) (UniProt P16257); assay: NVS_MP_rPBR: NovaScreen (NVS) Membrane Protein Assay for rat Peripheral-type Benzodiazepine Receptor (PBR) (AID 2283335)
# Procedure, shortened: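 Radioligand displacement, rat kidney membrane prep, 1 h exposure, filter-based scintillation read; DMSO baseline, loss-of-signal scored. Primary screen at 25 uM in duplicate, actives followed up in concentration series.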
# [3] = target: rat Adrenergic Receptor, Alpha 2 (Adra2), Non-selective Binding, Adra2a (gene 25083) (UniProt P22909); assay: NVS_GPCR_rAdra2_NonSelective: NovaScreen (NVS) G Protein-Coupled Receptor Assay for rat Adrenergic Receptor, Alpha 2 (Adra2), Non-selective Binding (AID 2283299)
# Description: NVS_GPCR_rAdra2_NonSelective is a biochemical, single-readout assay that uses extracted gene-proteins from Rat cortical membranes in a tissue-based cell-free assay. Measurements were taken 1.25 hours after chemical dosing in a 48-well plate.NVS_GPCR_rAdra2_NonSelective is one of one assay component(s) measured or calculated from the NVS_GPCR_rAdra2_NonSelective assay. It is designed to make measurements of radioligand binding, a form of binding reporter, as detected with scintillation counting signals by Filter-based radiodetection technology.Data from the assay component NVS_GPCR_rAdra2_NonSelective was analyzed into 1 assay endpoint. This assay endpoint, NVS_GPCR_rAdra2_NonSelective, was analyzed in the positive analysis fitting direction relative to DMSO as the negative control and baseline of activity. Using a type of binding reporter, loss-of-signal activity can be used to understand changes in the binding as they relate to the gene Adra2a. Furthermore, this assay endpoint can be referred to as a primary readout, because the performed assay has only produced 1 assay endpoint. To generalize the intended target to other relatable targets, this assay endpoint is annotated to the gpcr intended target family, where the subfamily is rhodopsin-like receptor. […]
# [4] = target: human Adrenergic, Beta 3 Receptor (Adrb3), ADRB3 (gene 155) (UniProt P13945); assay: NVS_GPCR_hAdrb3: NovaScreen (NVS) G Protein-Coupled Receptor Assay for human Adrenergic, Beta 3 Receptor (Adrb3) (AID 2283262)
# Procedure, shortened: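 Membranes from SK-N-MC cells pretreated with isoproterenol and 8-bromo-cAMP were used in a radioligand competitive displacement binding assay. Binding was read by filter-based scintillation counting 1 hour after dosing. Primary screening was in duplicate at 25 uM, with concentration series in follow-up.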
# [5] = target: human Thromboxane A2 Receptor (TXA2), TBXA2R (gene 6915) (UniProt P21731); assay: NVS_GPCR_hTXA2: NovaScreen (NVS) G Protein-Coupled Receptor Assay for human Thromboxane A2 Receptor (TXA2) (AID 2283282);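 also: actives reduce bound radioligand signal relative to DMSO baseline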
# Procedure, shortened: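 Filter scintillation counting of bound radioligand, human platelet protein, 1 h exposure. Single-concentration duplicates (25 uM) first, concentration-response follow-up for actives. Binding loss scored against DMSO baseline.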
# [6] = target: rat Corticotropin Releasing Factor Receptor (CRF), Crhr1 (gene 58959) (UniProt P35353); assay: NVS_GPCR_rCRF: NovaScreen (NVS) G Protein-Coupled Receptor Assay for rat Corticotropin Releasing Factor Receptor (CRF) (AID 2283300)
# Procedure, shortened: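 Rat cortical membranes used as receptor source in a radioligand competitive displacement binding assay; scintillation read 2 h after dosing. Primary screen run in duplicate at 25 uM; loss of signal versus DMSO baseline indicates binding.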
# [7] = target: rat Oxytocin Receptor (OXT), Oxtr (gene 25342) (UniProt P70536); assay: NVS_GPCR_rOXT: NovaScreen (NVS) G Protein-Coupled Receptor Assay for rat Oxytocin Receptor (OXT) (AID 2283330)
# Procedure, shortened: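 Radioligand displacement on rat uterine membranes, 1 h incubation, filter-based scintillation counting. Chemicals were screened in duplicate at 25 uM, and those passing threshold were retested in concentration-response up to 50 uM. Loss of binding was fitted versus DMSO.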
# [8] = target: rat Neonicotinoid receptor (NNR), Chrna7 (gene 25302) (UniProt Q05941); assay: NVS_LGIC_rNNR_BungSens: NovaScreen (NVS) Ligand-Gated Ion Channel Assay for rat Neonicotinoid receptor (NNR) (AID 2283315)
# Description: NVS_LGIC_rNNR_BungSens is a biochemical, single-readout assay that uses extracted gene-proteins from Rat cortical membranes in a tissue-based cell-free assay. Measurements were taken 2.5 hours after chemical dosing in a 48-well plate.NVS_LGIC_rNNR_BungSens is one of one assay component(s) measured or calculated from the NVS_LGIC_rNNR_BungSens assay. It is designed to make measurements of radioligand binding, a form of binding reporter, as detected with scintillation counting signals by Filter-based radiodetection technology.Data from the assay component NVS_LGIC_rNNR_BungSens was analyzed into 1 assay endpoint. This assay endpoint, NVS_LGIC_rNNR_BungSens, was analyzed in the positive analysis fitting direction relative to DMSO as the negative control and baseline of activity. Using a type of binding reporter, loss-of-signal activity can be used to understand changes in the binding as they relate to the gene Chrna7. Furthermore, this assay endpoint can be referred to as a primary readout, because the performed assay has only produced 1 assay endpoint. To generalize the intended target to other relatable targets, this assay endpoint is annotated to the ion channel intended target family, where the subfamily is ligand-gated ion channel. […]
# [9] = target: Sodium channel protein type 1 subunit alpha (Rattus norvegicus) (UniProt P04774); assay: NVS_IC_rNaCh_site2: NovaScreen (NVS) Ion Channel Assay for rat Sodium Channel, Site 2 (NaCh) (AID 2283322);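 also: hit means loss of radioligand binding signal relative to DMSO so AC50 marks displacement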
# Procedure, shortened: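 Membranes: rat forebrain. Format: competitive radioligand displacement, filter separation, scintillation readout, 1 h exposure. Primary screen in duplicate at 25 uM; actives retested in concentration series.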
# [10] = test system: rat Adrenergic, Alpha 1B Receptor (Adra1B), gene 24173; assay: NVS_GPCR_rAdra1B: NovaScreen (NVS) G Protein-Coupled Receptor Assay for rat Adrenergic, Alpha 1B Receptor (Adra1B) (AID 2283297)
# Procedure, shortened: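 Rat liver membranes, radioligand displacement with filter-based scintillation detection, 1 h incubation. Primary screen in duplicate at 25 uM; actives retested in concentration series; activity relative to DMSO.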
smiles,measurement,setting,value
Cc1ccc([N+](=O)[O-])cc1[N+](=O)[O-],outcome,[1],inactive
Cc1ccc([N+](=O)[O-])c([N+](=O)[O-])c1,AC50,[2],active: 16.9 µM
COP(C)(=O)OC,outcome,[3],inactive
CC(C)OP(C)(=O)OC(C)C,AC50,[4],active: 18.8 µM
same,AC50,[5],active: 2.52 µM
Cc1c([N+](=O)[O-])cccc1[N+](=O)[O-],outcome,[6],inactive
same,outcome,[7],inactive
CN(C)CCCl,outcome,[8],inactive
same,outcome,[9],inactive
Cc1cccc([N+](=O)[O-])c1[N+](=O)[O-],outcome,[10],inactive
same,outcome,[1],inactive
